Target: T1, human NPFFR1 (Homo sapiens, UniProt Q9GZQ6)
T1 construct: expressed in transfected cells; host or cells: HEK293T (pcDNA3.1 NPFFR1)
Assay: GloSensor forskolin-stimulated cAMP assay, NPFFR1 wild-type
Format: cell-based
Settings: HEK293T, 0.5 μM forskolin, three independent experiments

By UniProt entry, the sequences of proteins in these tests, tags left out. Where a name states a change or a piece, a line headed by the entry shows the natural chain unless it says otherwise.
UniProt Q9GZQ6: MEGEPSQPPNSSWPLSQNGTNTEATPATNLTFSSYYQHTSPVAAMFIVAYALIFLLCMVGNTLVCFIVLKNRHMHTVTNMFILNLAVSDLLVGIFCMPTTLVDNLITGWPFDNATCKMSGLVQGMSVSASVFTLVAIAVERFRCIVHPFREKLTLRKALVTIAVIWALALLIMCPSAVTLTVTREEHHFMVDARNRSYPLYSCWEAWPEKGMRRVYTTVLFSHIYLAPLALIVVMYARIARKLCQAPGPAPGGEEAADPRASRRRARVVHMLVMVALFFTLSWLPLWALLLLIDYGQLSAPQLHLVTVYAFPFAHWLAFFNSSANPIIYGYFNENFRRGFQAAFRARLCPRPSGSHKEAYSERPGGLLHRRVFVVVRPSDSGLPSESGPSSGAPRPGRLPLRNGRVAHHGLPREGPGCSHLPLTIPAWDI

How did the EC50 turn out when `CC(C)C[C@H](NC(=O)[C@H](CC(N)=O)NC(=O)[C@@H]1CCCN1C(=O)[C@@H](N)C(C)C)C(=O)N1CCC[C@H]1C(=O)N[C@@H](CCC(N)=O)C(=O)N[C@@H](CCCNC(=N)N)C(=O)N[C@@H](Cc1ccccc1)C(N)=O` [NPVF] was run?
Its EC50 is 2 nM.

From article PMC12069643, “Structural insights into the selective recognition of RF-amide peptides by neuropeptide FF receptor 2” (EMBO Reports, 2025)
